Values quoted from earlier work in US6635631B2, “Iron compounds, compositions, methods of making the same and uses thereof” (Vitra Pharmaceuticals, Ltd., priority 1995, dated 2003).

Details: given on an empty stomach; cited from earlier work

For `O=S(=O)([O-])[O-].[Fe+2]` [ferrous sulphate, reference compound], which absorption rate is on record?
The absorption rate was roughly 30%.
